Data as given in US20260285872A1, “COMPOUNDS AND METHODS FOR DEGRADING GSPT1” (priority 2023, published 2026).
Blank lines part the entries; values can stand above or below the compound they belong to.

Sequences of proteins named here, by UniProt entry; tags and fusion partners are left off. A change or cut given only in a name is not applied to a line headed by its entry.
UniProt P15170, whole entry: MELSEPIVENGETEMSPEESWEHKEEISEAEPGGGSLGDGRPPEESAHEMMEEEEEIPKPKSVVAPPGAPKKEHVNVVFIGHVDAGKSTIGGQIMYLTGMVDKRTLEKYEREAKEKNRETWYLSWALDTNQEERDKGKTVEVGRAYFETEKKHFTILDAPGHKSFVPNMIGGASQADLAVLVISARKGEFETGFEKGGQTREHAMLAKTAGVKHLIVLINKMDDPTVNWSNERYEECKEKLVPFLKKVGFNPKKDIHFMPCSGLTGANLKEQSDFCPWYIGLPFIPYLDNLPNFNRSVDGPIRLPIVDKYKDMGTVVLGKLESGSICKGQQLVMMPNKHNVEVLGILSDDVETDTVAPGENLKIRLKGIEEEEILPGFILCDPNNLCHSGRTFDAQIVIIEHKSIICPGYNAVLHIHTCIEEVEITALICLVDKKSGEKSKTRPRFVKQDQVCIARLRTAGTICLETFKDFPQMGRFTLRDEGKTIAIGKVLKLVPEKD
UniProt Q96SW2: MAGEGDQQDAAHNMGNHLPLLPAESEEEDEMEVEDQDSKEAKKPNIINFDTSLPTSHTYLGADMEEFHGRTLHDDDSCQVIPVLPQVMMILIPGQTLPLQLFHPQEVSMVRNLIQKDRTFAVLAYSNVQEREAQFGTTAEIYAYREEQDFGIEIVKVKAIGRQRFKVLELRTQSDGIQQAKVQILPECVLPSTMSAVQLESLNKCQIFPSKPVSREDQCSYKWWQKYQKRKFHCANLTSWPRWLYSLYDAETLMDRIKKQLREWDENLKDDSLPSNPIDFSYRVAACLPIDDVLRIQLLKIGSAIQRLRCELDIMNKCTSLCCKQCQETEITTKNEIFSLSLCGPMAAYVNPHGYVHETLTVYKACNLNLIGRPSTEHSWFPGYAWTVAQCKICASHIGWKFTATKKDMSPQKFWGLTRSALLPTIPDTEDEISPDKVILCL

How the values were obtained:
[1] = target: T1, GSPT1 (Homo sapiens, UniProt P15170+Q96SW2); assay: cell-based; details: MV4-11, MV-4-11 cells, 6 hours, Western Blot, % reduction of GSPT1 compared to DMSO, normalized to GAPDH, read-out: GSPT1 degradation classification
[2] = target: T1, GSPT1; assay: GSPT1 degradation, Western Blot, MV-4-11 cells, 0.1 μM, 4 hours; assay type: cell-based; details: MV4-11, % reduction of GSPT1 compared to DMSO, normalized to GAPDH, read-out: GSPT1 degradation classification
Experimental: Compounds of the present disclosure was added to cells (final DMSO concentration of 0.1%) and incubated for 4 hours. GSPT1 levels were determined in MV-4-11 cells using Western Blot analysis. Briefly, whole cell lysates were prepared in lysis buffer (1×RIPA buffer [Thermo, 89900], 1×Pierce protease inhibitor tablets EDTA-free [Thermo, A32965]). 6-20 μg of the lysates was analyzed using Western Blot with antibodies against GSPT1 (Abcam, ab234433 and ab126090) and GAPDH (CST, #2118). Protein levels were normalized to GAPDH levels.
The efficacy of GSPT1 degradation of a part of compounds of the present disclosure was determined by treating MV-4-11 cells at 0.1 μM (final DMSO concentration of 0.1%) for 4 hours. GSPT1 levels were determined using Western Blot and normalized to GAPDH levels. The compounds are classified based on amount of GSPT1 degradation (% reduction of GSPT1 compared to DMSO) as follows. • A: Degradation is greater than or equal to 75%; • B: Degradation is less than 75% & greater than or equal to 50%; • C: Degradation is less than 50%; • ND: No degradation.

[3] = target: T1, GSPT1; assay: GSPT1 degradation, Western Blot, A549 cells, 1 μM, 16 hours; assay type: cell-based; details: % reduction of GSPT1 compared to DMSO, normalized to GAPDH, read-out: GSPT1 degradation classification
[4] = target: T1, GSPT1; assay type: cell-based; details: read-out: GSPT1 degradation classification; DC50, GSPT1_HiBIT_HEK293 cells, 16 hours, Nano-Glo HiBiT Lytic Detection
Experimental: GSPT1_HiBIT_HEK293 cells were culture in DMEM medium with 10% FBS under standard tissue culture conditions. […] GSPT1 level was determined in along with the Nano-Glo HiBiT Lytic Detection system [Promega N3050] with final concentration of 1×. The luminescence was normalized to that of DMSO-treated samples. DC50 values were obtained using three-parameter non-linear regressions using Prism (GraphPad).

inhibition at 1 µM [1]: > 75%
Structure (SMILES): O=C1CCC(N2Cc3cc(C(=O)N4Cc5ccccc5C4)ccc3C2=O)C(=O)N1 (centres unmarked) [Example 12, 3-(5-(isoindoline-2-carbonyl)-1-oxoisoindolin-2-yl)piperidine-2,6-dione]

Structure (SMILES): COc1cc(F)c2c(c1)CCN2C(=O)c1ccc2c(c1)CN(C1CCC(=O)NC1=O)C2=O (centres unmarked) [Example 64, 3-(5-(7-fluoro-5-methoxyindoline-1-carbonyl)-1-oxoisoindolin-2-yl)piperidine-2,6-dione]
inhibition at 0.1 µM [2]: < 50%

Structure (SMILES): O=C1CCC(N2Cc3cc(C(=O)N4CCc5c(F)cc(F)cc54)ccc3C2=O)C(=O)N1 (centres unmarked) [Example 92, 3-(5-(4,6-difluoroindoline-1-carbonyl)-1-oxoisoindolin-2-yl)piperidine-2,6-dione]
inhibition at 1 µM [3]: > 75%

Structure (SMILES): O=C1CCC(N2Cc3cc(C(=O)Nc4ccccc4)ccc3C2=O)C(=O)N1 (centres unmarked) [Example 93, 2-(2,6-dioxopiperidin-3-yl)-1-oxo-N-phenylisoindoline-5-carboxamide]
inhibition at 1 µM [3]: < 50%

Structure (SMILES): O=C1CCC(N2Cc3cc(C(=O)N4Cc5c(F)ccc(OC(F)(F)F)c5C4)ccc3C2=O)C(=O)N1 (centres unmarked) [Example 185, 3-(5-(4-fluoro-7-(trifluoromethoxy)isoindoline-2-carbonyl)-1-oxoisoindolin-2-yl)piperidine-2,6-dione]
DC50 [4]: > 1000 nM
